# Biological target: human PDE10A (Homo sapiens (Human), UniProt Q9Y233)
# Protein sequences, listed by entry. Tags and fused reporters are not part of them. Chains listed by the source or under a name are the forms on record and can include a tag or linker. Residues count along the entry.
# UniProt Q9Y233, 290-1055 with tags or gaps limits assumed: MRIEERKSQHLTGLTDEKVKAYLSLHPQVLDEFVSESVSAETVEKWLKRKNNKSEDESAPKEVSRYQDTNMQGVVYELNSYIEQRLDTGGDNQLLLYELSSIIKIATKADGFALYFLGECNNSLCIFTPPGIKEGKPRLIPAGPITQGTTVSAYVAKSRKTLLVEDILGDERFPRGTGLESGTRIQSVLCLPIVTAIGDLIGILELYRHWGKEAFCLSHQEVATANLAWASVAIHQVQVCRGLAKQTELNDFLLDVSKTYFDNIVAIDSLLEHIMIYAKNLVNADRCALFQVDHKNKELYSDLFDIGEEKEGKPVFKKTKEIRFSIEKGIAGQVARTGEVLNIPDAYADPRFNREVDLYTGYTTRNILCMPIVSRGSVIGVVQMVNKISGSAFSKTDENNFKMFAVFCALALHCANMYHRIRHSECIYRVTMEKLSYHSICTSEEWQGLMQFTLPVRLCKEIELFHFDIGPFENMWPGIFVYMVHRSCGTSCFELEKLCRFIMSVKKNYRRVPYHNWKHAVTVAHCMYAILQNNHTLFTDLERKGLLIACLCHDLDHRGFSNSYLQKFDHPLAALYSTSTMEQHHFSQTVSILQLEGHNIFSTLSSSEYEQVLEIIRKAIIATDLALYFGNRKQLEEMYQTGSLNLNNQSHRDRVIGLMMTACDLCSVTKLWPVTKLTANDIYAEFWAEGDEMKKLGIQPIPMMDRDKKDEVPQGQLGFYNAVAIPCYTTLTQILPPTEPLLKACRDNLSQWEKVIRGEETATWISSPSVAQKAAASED
# Test: human PDE10A full length Scintillation Proximity Assay (SPA)
# Type: biochemical
# Settings: read-out: PDE10A inhibition IC50; 50 nM cGMP and 50 nM [3H]-cGMP, 20 minutes at room temperature
row,SMILES,IC50
1,CNC(=O)c1c(NC(=O)c2nc(C(C)(C)C)ncc2Nc2cncnc2)cnn1C,2.5 nM
2,CNC(=O)c1c(NC(=O)c2nc(C(C)C)ncc2Nc2cncnc2)cnn1C,12.8 nM

# Source: US8703768B2, “Nitrogen containing heteroaryl compounds” (Hoffmann-La Roche Inc., priority 2010, dated 2014)
